Columns and labels:
Assay type in all cases: cell-based
Conditions in all cases: 100 nM OTA, 10 nM OT
OTR [1] = biological target: T1, OTR (Homo sapiens, UniProt P30559); test: Intracellular calcium levels, Saos-2 cells
T1 sequence (P30559 1-389): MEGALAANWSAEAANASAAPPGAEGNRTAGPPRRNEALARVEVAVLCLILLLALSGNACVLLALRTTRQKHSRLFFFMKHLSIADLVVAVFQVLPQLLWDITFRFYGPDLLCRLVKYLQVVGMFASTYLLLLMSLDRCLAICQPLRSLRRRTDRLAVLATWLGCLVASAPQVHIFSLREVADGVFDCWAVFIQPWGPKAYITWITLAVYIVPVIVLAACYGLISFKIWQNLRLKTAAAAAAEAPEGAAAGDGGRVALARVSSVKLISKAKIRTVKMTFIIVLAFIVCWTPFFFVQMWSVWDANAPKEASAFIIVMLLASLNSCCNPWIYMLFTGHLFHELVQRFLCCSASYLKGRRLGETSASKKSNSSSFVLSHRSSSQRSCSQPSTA
Experimental: (§1) FIG. 3A, FIG. 3B and FIG. 3C Intracellular calcium transients after 10 nM oxytocin treatment. (FIG. 3A.) Undifferentiated osteoblastic cells; (FIG. 3B.) differentiated osteoblastic cells; and (FIG. 3C.) Saos-2 cells. Cells were incubated at 37C and treated in the following manner; 100 nM OTA for 1 min, […], wash cells 3 times to remove bound antagonist, 10 min recovery, and then 10 nM OT treatment.
(§2) Cell Culture Conditions: Human osteosarcoma cells (Saos-2) cells were obtained from the ATCC (Rockville, Md.). Human osteoblasts (Cheng et al., 1994; Civitelli et al., 1993) were prepared from explants of cultured rib trabecular. These cells were grown in mineralizing media consisting of DMEM supplemented with 10% fetal bovine serum (FBS), 2% penicillin/streptomycin, dexamethasone (100 nM), ascorbate (50 μg/ml, and β3-glycerophosphate (10 μg/ml) in a humidified tissue culture incubator at 37C under an atmosphere of 5% CO2 and 95% air. These conditions accelerate the osteoblastic modulation of undifferentiated human trabecular bone cells and the production of osteogenic mineralizeable collagen matrix (Cheng et al., Civitelli et al., 1993). To retain undifferentiated osteoblastic phenotype, cells were cultured in the absence of dexamethasone, ascorbate, and β-glycerophosphate. […]

OTR [2] = biological target: T1, OTR; test: Intracellular calcium levels, differentiated osteoblastic cells; parameters: Undifferentiated or differentiated human trabecular bone cells with osteogenic capacity in primary culture express oxytocin receptors (OTRs); endogenous in cells; host or cells: primary human osteoblastic cells from rib trabecular bone explants (undifferentiated, or differentiated in mineralizing medium)
Experimental: as §1, §2

OTR [3] = biological target: T1, OTR; test: Intracellular calcium levels, undifferentiated osteoblastic cells; parameters: Undifferentiated or differentiated human trabecular bone cells with osteogenic capacity in primary culture express oxytocin receptors (OTRs); endogenous in cells; host or cells: primary human osteoblastic cells from rib trabecular bone explants (undifferentiated, or differentiated in mineralizing medium)
Experimental: as §1, §2

Measured: block of OT induced rise in [Ca2+]i

[d(CH2)5, Tyr(Me)^2, Thr^4, Tyr-NH2^9 ] OVT [Oxytocin antagonist]
completely blocked: all assays above
